Earlier results in patent US4198507A.

Columns and labels:
[1] = prior art; cited from earlier work
gastrointestinal tract = conditions: compared with the parent xanthines; prior art; cited from earlier work
[2] = prior art; cited from earlier work; remark: listed apart in the source

Row | Substance | reaction in aqueous solutions or suspensions [1] | tolerance in the gastrointestinal tract (gastrointestinal tract) | water solubility (in words) [2]
1 | theobromine calcium salicylate | alkaline reactions | better tolerated | 
2 | theophylline calcium salicylate |  |  | insoluble
